# The list shows a part of the results, in another mix than the full data. The source made the active and inactive calls. Cut-off read from the data, not from the text of the source: active = inhibition above about 50%; inactive = the rest.
# Protein sequences, listed by entry. Tags and fused reporters are not part of them.
# UniProt P34949, whole entry: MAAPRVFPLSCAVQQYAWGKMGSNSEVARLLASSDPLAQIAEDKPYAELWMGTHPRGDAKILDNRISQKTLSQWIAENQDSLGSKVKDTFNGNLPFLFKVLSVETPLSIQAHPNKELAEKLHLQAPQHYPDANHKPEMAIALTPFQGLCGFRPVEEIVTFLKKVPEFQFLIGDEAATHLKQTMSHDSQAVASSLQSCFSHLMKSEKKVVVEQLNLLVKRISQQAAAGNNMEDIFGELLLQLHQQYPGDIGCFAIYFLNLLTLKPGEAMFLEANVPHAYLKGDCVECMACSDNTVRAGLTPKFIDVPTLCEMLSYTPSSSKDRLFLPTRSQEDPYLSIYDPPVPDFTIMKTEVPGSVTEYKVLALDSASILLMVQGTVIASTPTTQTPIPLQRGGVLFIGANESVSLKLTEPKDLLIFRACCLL
# Biological target: Mannose-6-phosphate isomerase (Homo sapiens) (UniProt P34949)
# Assay: MPI enzyme activity inhibition – biochemical, fluorescence intensity, coupled assay, primary screen (AID 1209);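 note: plate controls were DMSO vehicle for no effect and wells lacking substrate for full effect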
# Settings: purified PMI enzyme, at 20 µM, hits give high values
row,SMILES,inhibition
1,CCOc1ncccc1C(=O)NCC1(N2CCOCC2)CCCCC1,inactive: 6.1%
2,CC(C)(C)OC(=O)N1CCC(Nc2ccccc2)CC1,inactive: -12.3%
3,COc1cc(OC)cc(C(=O)NCC2(N3CCOCC3)CCCCC2)c1,inactive: -7.3%
4,CCC(CO)(C(=O)OC1CN2CCC1CC2)c1ccccc1 (stereo not given),inactive: -1.6%
5,Fc1ccccc1NC1CCN(Cc2ccccc2)CC1,inactive: -16.8%
6,CCN1CCC(Nc2cccc(F)c2)CC1,inactive: 5%
7,CN(C)c1ccc(C(=O)NCC2(N3CCCCC3)CCCCC2)cc1,inactive: -4.1%
8,N#Cc1ccc(C(=O)NCC2(N3CCCCC3)CCCCC2)cc1,inactive: -8.1%
9,c1ccc(CN2CCC(Nc3ccccc3)CC2)cc1,inactive: 15.3%
10,COc1ccc(C(=O)NCC2(N3CCOCC3)CCCCC2)cc1OC,inactive: -6.6%
11,N/C(=N\O)c1c(N)no[n+]1[O-],inactive: -10.7%
12,O=C(OC1CN2CCC1CC2)C1c2ccccc2C=Cc2ccccc21 (stereo not given),inactive: -12.9%
13,CC(C)c1ccc(NC2CCN(C(=O)OC(C)(C)C)CC2)cc1,inactive: 13.1%
14,CN(C)c1cccc(C(=O)NCC2(N3CCCCC3)CCCCC2)c1,inactive: -54.7%
15,COc1ccc(CN(CCCl)CCCl)cc1Cl,inactive: 29%
16,N#CC1(Nc2ccccc2)CCN(CCc2ccccc2)CC1,inactive: 2%
17,O=C(NCC1(N2CCCCC2)CCCCC1)c1cccc([N+](=O)[O-])c1,inactive: -5.7%
18,O=C(NCC1(N2CCOCC2)CCCCC1)c1cc(=O)[nH]c2ccccc12,inactive: 6%
19,COc1ccc(NC2CCN(C(=O)OC(C)(C)C)CC2)cc1,inactive: 1.5%
20,CN1CCN(CCOC(=O)C(O)(c2ccccc2)c2ccccc2)CC1,inactive: 28.5%
21,COc1ccc(NC2CCN(CCc3ccccc3)CC2)c(OC)c1,inactive: 24.1%
22,COc1ccc(C(=O)NCC2(N3CCCCC3)CCCCC2)c(OC)c1OC,inactive: 0.9%
23,O=C(NCC1(N2CCOCC2)CCCCC1)c1cc2ccccc2o1,inactive: 3.7%
24,O=C(OC1CN2CCC1CC2)C1c2ccccc2Oc2ccccc21 (stereo not given),inactive: 5.3%
25,CCOC(=O)N1CCC(Nc2ccc(OC)cc2)CC1,inactive: -1.7%

# Source: PubChem BioAssay AID1209 (Sanford-Burnham Center for Chemical Genomics, 2008)
